OPERA 2.9 data: melting point values

Values as listed in the OPERA 2.9 repository of K. Mansouri.

Melting points are in °C.
Cells with "–" have no entry in this list.

structure (SMILES) | name | melting point (°C)
NC(=O)CCS(=O)(=O)CCCl | 3-[(2-chloroethyl)sulfonyl]propanamide | 140
O=C(Nc1ccc(O)cc1)c1ccccc1 | Benzamide, N-(4-hydroxyphenyl)- | 216
O=C(O)c1ccc(S(=O)(=O)N2CCCCC2)cc1 | 4-(Piperidine-1-sulfonyl)-benzoic acid | 271
COc1cccc(-n2cc[nH]c2=S)c1 | 1-(3-methoxyphenyl)-1H-imidazole-2-thiol | 150
CNc1ccc(Nc2cccc(C)c2)c2c1C(=O)c1ccccc1C2=O | – | 148.2
CC(=O)[O-].CCN(CC[N+](C)(C)CC(C)O)c1ccc(/N=N/c2ccc([N+](=O)[O-])cc2Cl)cc1 (stereo partly drawn) | – | 187.5
Cl.N/N=C(\O)C(N)CO (stereo partly drawn) | – | 198
O=C1CC(=O)Nc2ccccc2N1 | 1H-1,5-Benzodiazepine-2,4(3H,5H)-dione | 384
CC[C@]1(CC=C2CCCc3cc(OC)ccc32)C(=O)CC[C@@H]1O | – | 91
CCC(=O)OCC(C)(C)OC(C)C1CCCC(C)(C)C1 (stereo unspecified) | – | -22.15
N#Cc1c(N)sc2c1CCCCC2 | – | 109
NC(=O)COc1ccc(C(=O)O)cc1 | 4-(2-amino-2-oxoethoxy)benzoic acid | 274
CCC(c1ccc(OCCN(CC)CC)cc1)C(CC)c1ccc(OCCN(CC)CC)cc1.Cl.Cl (stereo unspecified) | – | 226
O=C([O-])c1cc(S(=O)(=O)[O-])ccc1/N=N/[C-](/N=N/c1cc(S(=O)(=O)O)cc(Nc2nc(Cl)nc(Nc3cc(S(=O)(=O)[O-])c(Nc4nc(Cl)nc(Nc5cccc(S(=O)(=O)[O-])c5)n4)cc3S(=O)(=O)[O-])n2)c1[O-])c1ccccc1.[Cu+2].[Na+].[Na+].[Na+].[Na+].[Na+] | – | 170
CO[C@@H]1C=CO[C@]2(C)Oc3c(C)c(O)c4c(c3C2=O)C(=O)C(N)=C(NC(=O)C(C)=CC=C[C@@H](C)[C@@H](O)[C@H](C)[C@H](O)[C@H](C)[C@@H](OC(C)=O)[C@H]1C)C4=O | – | 155.7
COc1ccc(-c2cc(CBr)on2)cc1 | 5-(bromomethyl)-3-(4-methoxyphenyl)isoxazole | 89
IC[C@H]1CC[C@H](CI)CC1 | trans-1,4-Bis(iodomethyl)cyclohexane | 75
CCCc1ccc(-c2cc(F)c(C(F)(F)Oc3cc(F)c(F)c(F)c3)c(F)c2)cc1 | – | 43.8
COC(=O)c1ccc(S(=O)(=O)Cl)cc1 | Methyl 4-(Chlorosulfonyl)benzoate | 67.5
Nc1ccc(S(=O)(=O)NC2CC2)cc1 | 4-amino-N-cyclopropylbenzenesulfonamide | 146
CN(c1ccc(O)cc1)S(=O)(=O)c1ccccc1 | N-(4-Hydroxyphenyl)-N-methylbenzenesulfonamide | 132
COc1ccccc1C1CNCCN1 (stereo unspecified) | 2-(2-Methoxyphenyl)piperazine | 79.5
C[C@H]1CC[C@@H]2N(C1)C[C@@H]1[C@H]([C@@H](O)[C@H](O)[C@]3(O)[C@H]1C[C@@]14O[C@@]5(O)[C@@H](C[C@@H](O)[C@@H]31)[C@]4(C)CC[C@@H]5O)[C@]2(C)O | Germine | 220
CCCN1C(=O)N=C(O)C1=O | 4-Hydroxy-1-propyl-1H-imidazole-2,5-dione | 106
Cc1cc2ccccc2n1CC(=O)O | (2-Methyl-1H-indol-1-yl)acetic acid | 185
Cc1ccc2c(=O)[nH]c(=O)oc2c1 | 7-Methyl-2H-1,3-benzoxazine-2,4(3H)-dione | 238
CC(=O)OCC(C)(C)C=O | 2,2-Dimethyl-3-oxopropyl acetate | -29
CCOc1ccc(O)c(C=O)c1 | 5-ethoxy-2-hydroxybenzaldehyde | 50
CC(C)(C)c1cc(N)n(-c2ccc(F)cc2)n1 | 3-tert-butyl-1-(4-fluorophenyl)-1H-pyrazol-5-amine | 99
Fc1cccc(-n2[nH]nnc2=S)c1 | 1-(3-fluorophenyl)-1H-tetrazole-5-thiol | 137
CCCCNc1ccc(S(N)(=O)=O)cc1N | 3-Amino-4-butylamino-benzenesulfonamide | 131
O=C(O)c1cnn(-c2ccccc2)c1 | Pyrazole-4-carboxylic acid, 1-phenyl- | 178
Cc1[nH]c(=O)[nH]c(=O)c1CCC(=O)O | – | 307
C=CCCCCCC=O | Oct-7-enal | -72.4
CC(=O)OCC(CNC(=O)c1c(I)c(N)c(I)c(C(=O)O)c1I)OC(C)=O (stereo unspecified) | AGN-PC-00FRCT | 191.8
Cc1cc(-c2ccccc2)nc(=S)[nH]1 | 4-methyl-6-phenylpyrimidine-2-thiol | 209
F[B-](F)(F)C(F)(F)C(F)(F)F.[K+] | Potassium trifluoro(pentafluoroethyl)borate(1-) | 254.5
CC1(c2ccccc2)NC(=O)N(CC(=O)O)C1=O (stereo unspecified) | (4-Methyl-2,5-dioxo-4-phenyl-imidazolidin-1-yl)-acetic acid | 171
CCCCCCCC/C=C/CCCCCCCC(=O)O.CCCCCCCC/C=C/CCCCCCCC(=O)O.CCCCCCCC/C=C/CCCCCCCCNCCCN | – | -9
Nc1ccccc1S(=O)(=O)N1CCOCC1 | 2-(morpholin-4-ylsulfonyl)aniline | 115
Oc1ccc(CN2CCCC2)c2cccnc12 | 5-(pyrrolidin-1-ylmethyl)quinolin-8-ol | 113
O=C(O)c1ccc(S(=O)(=O)Nc2ccccc2)cc1 | 4-(Phenylsulfamoyl)benzoic acid | 226
O=C(O)C1CCCN1C(=O)c1cccs1 (stereo unspecified) | 1-(Thiophene-2-carbonyl)proline | 146
O=C(CCCl)OCCCCCl | 4-Chlorobutyl 3-chloropropanoate | -62
Cc1ccc(S(C)(=O)=O)cc1S(=O)(=O)Cl | 5-methanesulfonyl-2-methylbenzene-1-sulfonyl chloride | 137
NNc1ccc(S(=O)(=O)CCO)cc1 | Ethanol, 2-[(4-hydrazinophenyl)sulfonyl]- | 176

The first 6 entries again:

structure (SMILES) | name | melting point (°C)
NC(=O)CCS(=O)(=O)CCCl | 3-[(2-chloroethyl)sulfonyl]propanamide | 140
O=C(Nc1ccc(O)cc1)c1ccccc1 | Benzamide, N-(4-hydroxyphenyl)- | 216
O=C(O)c1ccc(S(=O)(=O)N2CCCCC2)cc1 | 4-(Piperidine-1-sulfonyl)-benzoic acid | 271
COc1cccc(-n2cc[nH]c2=S)c1 | 1-(3-methoxyphenyl)-1H-imidazole-2-thiol | 150
CNc1ccc(Nc2cccc(C)c2)c2c1C(=O)c1ccccc1C2=O | – | 148.2
CC(=O)[O-].CCN(CC[N+](C)(C)CC(C)O)c1ccc(/N=N/c2ccc([N+](=O)[O-])cc2Cl)cc1 (stereo partly drawn) | – | 187.5

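OPERA's authors assembled the values from existing databases and did not measure them anew. One number stands for a compound and property, with no spread given. How each value was measured is not recorded, so precision varies. Where a salt, mixture or single isomer is drawn, the source does not say that exactly this form was tested. Unmarked limits or estimates from the upstream databases cannot be ruled out.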